Here are results for 1 substance from patent US5614548A, “Quaternary amine containing ether or ester lipid derivatives and therapeutic compositions” (priority 1994, dated 1997).

The data set relates to CEM-SS cells.

Turning to DEAE-Dextran, the “toxicity to CEM-SS cell growth” value is on record as “toxic to CEM-SS cell growth”.
